PMC4904354 (Journal of Cerebral Blood Flow & Metabolism, 2015)

Tested on: N-methyl-D-aspartate receptor
Assay type: in vivo, human
Settings: for percentage change in mean Ki of [^11C]GMOM after S-ketamine: outlier excluded, 2T3k_VB model
[1] = linear mixed effects model analysis, significant but small

CN[C@]1(c2ccccc2Cl)CCCCC1=O [S-ketamine, reference compound]
increase of Ki of [^11C]GMOM after S-ketamine in one subject (outlier) (all ROI, single outlier subject): > 75% | percentage change in mean Ki of [^11C]GMOM after S-ketamine (hippocampus): −70 ± 12% | increase in K1 of [^11C]GMOM after the challenge [1]: 7% | increase in VND of [^11C]GMOM after the challenge [1]: 10% | change in Ki of [^11C]GMOM after S-ketamine challenge at the whole brain level (linear mixed effects model, p < 0.0001): significant decrease | percentage change in mean Ki of [^11C]GMOM after S-ketamine (thalamus): −79 ± 24% | percentage change in mean Ki of [^11C]GMOM after S-ketamine (total brain gray matter): −66 ± 23%

Read-outs that look alike come from different tables or passages of the source.
